Legend:
CRF1R = biological target: T1, CRF1R (Homo sapiens, UniProt P34998); test: CRF1R agonist activation (EC50 / Emax), called comparative CRF binding; assay type: cell-based; conditions: for Emax: read-out: CRF1R Emax
T1 sequence (P34998 24-415): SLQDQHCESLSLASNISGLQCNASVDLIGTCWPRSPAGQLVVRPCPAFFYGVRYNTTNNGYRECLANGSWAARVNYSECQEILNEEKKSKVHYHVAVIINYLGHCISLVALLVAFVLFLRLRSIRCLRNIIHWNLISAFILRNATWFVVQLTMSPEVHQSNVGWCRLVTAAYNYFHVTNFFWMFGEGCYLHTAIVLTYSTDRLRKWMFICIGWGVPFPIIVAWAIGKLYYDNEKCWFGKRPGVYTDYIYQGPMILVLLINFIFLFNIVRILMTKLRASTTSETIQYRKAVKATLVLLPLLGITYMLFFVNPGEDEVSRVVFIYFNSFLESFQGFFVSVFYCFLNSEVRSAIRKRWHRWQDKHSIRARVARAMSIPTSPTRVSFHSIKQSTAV
Method in brief: (§1)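 Peptides are tested on cells bearing CRF1R or CRF2R, full length or as ligand-binding-domain constructs coupled to reporters or G proteins. Activation is scored by cAMP rise, measured in lysates or by CRE-reporter output, against vehicle control.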

CRF2R = biological target: T2, CRF2R (Homo sapiens, UniProt Q13324); test: CRF2R agonist activation (EC50 / Emax), called comparative CRF binding; assay type: cell-based; conditions: for Emax: read-out: CRF2R Emax
T2 sequence (Q13324 1-411): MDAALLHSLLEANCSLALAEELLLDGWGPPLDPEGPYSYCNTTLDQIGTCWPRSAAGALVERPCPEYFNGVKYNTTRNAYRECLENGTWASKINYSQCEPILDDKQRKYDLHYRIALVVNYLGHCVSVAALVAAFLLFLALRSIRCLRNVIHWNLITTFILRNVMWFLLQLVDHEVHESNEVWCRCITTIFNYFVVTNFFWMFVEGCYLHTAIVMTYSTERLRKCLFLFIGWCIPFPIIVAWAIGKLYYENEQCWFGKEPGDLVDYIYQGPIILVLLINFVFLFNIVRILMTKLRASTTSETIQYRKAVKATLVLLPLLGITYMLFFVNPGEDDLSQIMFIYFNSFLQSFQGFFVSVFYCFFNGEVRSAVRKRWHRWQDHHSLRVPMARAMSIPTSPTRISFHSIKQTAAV
Method in brief: as §1

Row | SMILES | Emax (CRF1R) | Emax (CRF2R) | EC50 (CRF1R; CRF1R EC50) | EC50 (CRF2R)
1 | CC[C@H](C)[C@H](NC(=O)[C@@H](NC(=O)[C@H](CC(=O)O)NC(=O)[C@H](CC(C)C)NC(=O)[C@H](CC(C)C)NC(=O)[C@H](CC(C)C)NC(=O)[C@H](CCCNC(=N)N)NC(=O)[C@H](CC(N)=O)NC(=O)[C@H](CC(N)=O)NC(=O)[C@H](C)NC(=O)[C@H](C)NC(=O)[C@H](CCC(N)=O)NC(=O)[C@H](CCC(N)=O)NC(=O)[C@H](CCCCN)NC(=O)[C@H](CCC(=O)O)NC(=O)[C@H](CCCCN)NC(=O)[C@H](CCC(=O)O)NC(=O)[C@H](CCC(N)=O)NC(=O)[C@H](CCCCN)NC(=O)[C@H](CCC(=O)O)NC(=O)[C@@H](NC(=O)[C@H](CCC(=O)O)NC(=O)[C@@H](NC(=O)[C@H](CCSC)NC(=O)[C@H](CCCCN)NC(=O)[C@H](CCCNC(=N)N)NC(=O)[C@H](CC(C)C)NC(=O)[C@H](CC(C)C)NC(=O)[C@H](CC(C)C)NC(=O)[C@@H](NC(=O)[C@@H]1CCCN1C(=O)[C@H](CC(C)C)NC(=O)[C@H](CC(=O)O)NC(=O)[C@@H](NC(=O)[C@H](CO)NC(=O)[C@@H](NC(=O)[C@@H]1CCCN1C(=O)[C@@H]1CCCN1C(=O)CNC(=O)[C@@H]1CCC(=O)N1)[C@@H](C)CC)[C@@H](C)CC)[C@@H](C)O)[C@@H](C)CC)[C@@H](C)CC)[C@@H](C)O)C(N)=O [compound 51] | 48% | 100% | – | –
2 | CC[C@H](C)[C@H](NC(=O)[C@@H](NC(=O)[C@H](CC(=O)O)NC(=O)[C@H](CC(C)C)NC(=O)[C@H](CC(C)C)NC(=O)[C@H](CC(C)C)NC(=O)[C@H](CCCNC(=N)N)NC(=O)[C@H](CC(N)=O)NC(=O)[C@H](CC(N)=O)NC(=O)[C@H](C)NC(=O)[C@H](C)NC(=O)[C@H](CCC(N)=O)NC(=O)[C@H](CCC(N)=O)NC(=O)[C@H](CCCCN)NC(=O)[C@H](CCC(=O)O)NC(=O)[C@H](CCCCN)NC(=O)[C@H](CCC(=O)O)NC(=O)[C@H](CCC(N)=O)NC(=O)[C@H](CCCCN)NC(=O)[C@H](CCC(=O)O)NC(=O)[C@@H](NC(=O)[C@H](CCC(=O)O)NC(=O)[C@@H](NC(=O)[C@H](CCSC)NC(=O)[C@H](CCCCN)NC(=O)[C@H](CCCNC(=N)N)NC(=O)[C@H](CC(C)C)NC(=O)[C@H](CC(C)C)NC(=O)[C@@H](NC(=O)[C@@H](NC(=O)[C@@H]1CCCN1C(=O)[C@H](CC(C)C)NC(=O)[C@H](CC(=O)O)NC(=O)[C@@H](NC(=O)[C@H](CO)NC(=O)[C@@H](NC(=O)[C@@H]1CCCN1C(=O)[C@@H]1CCCN1C(=O)CNC(=O)[C@@H]1CCC(=O)N1)[C@@H](C)CC)[C@@H](C)CC)[C@@H](C)CC)C(C)C)[C@@H](C)CC)[C@@H](C)CC)[C@@H](C)O)C(N)=O [compound 31] | 18% | 100% | > 1000 nM | 30.8 nM
3 | CC[C@H](C)[C@H](NC(=O)[C@@H](NC(=O)[C@H](CC(=O)O)NC(=O)[C@H](CC(C)C)NC(=O)[C@H](CC(C)C)NC(=O)[C@H](CC(C)C)NC(=O)[C@H](CCCNC(=N)N)NC(=O)[C@H](CC(N)=O)NC(=O)[C@H](CC(N)=O)NC(=O)[C@H](C)NC(=O)[C@H](C)NC(=O)[C@H](CCC(N)=O)NC(=O)[C@H](CCC(N)=O)NC(=O)[C@H](CCCCN)NC(=O)[C@H](CCC(=O)O)NC(=O)[C@H](CCCCN)NC(=O)[C@H](CCC(=O)O)NC(=O)[C@H](CCC(N)=O)NC(=O)[C@H](CCCCN)NC(=O)[C@H](CCC(=O)O)NC(=O)[C@@H](NC(=O)[C@H](CCC(=O)O)NC(=O)[C@@H](NC(=O)[C@H](CCSC)NC(=O)[C@H](CCCCN)NC(=O)[C@H](CCCNC(=N)N)NC(=O)[C@H](CC(C)C)NC(=O)[C@H](CC(C)C)NC(=O)[C@H](Cc1ccc(O)cc1)NC(=O)[C@H](CCC(N)=O)NC(=O)[C@@H]1CCCN1C(=O)[C@H](CC(C)C)NC(=O)[C@H](CC(=O)O)NC(=O)[C@@H](NC(=O)[C@H](CO)NC(=O)[C@@H](NC(=O)[C@@H]1CCCN1C(=O)[C@@H]1CCCN1C(=O)CNC(=O)[C@@H]1CCC(=O)N1)[C@@H](C)CC)[C@@H](C)CC)[C@@H](C)CC)[C@@H](C)CC)[C@@H](C)O)C(N)=O [compound 27] | 100% | 96% | – | –
